According to PMC7822067, “Pyridinium-2-carbaldoximes with quinolinium carboxamide moiety are simultaneous reactivators of acetylcholinesterase and butyrylcholinesterase inhibited by nerve agent surrogates” (2021):

What was measured:
hrAChE inhibited by NIMP = hrAChE inhibited by NIMP (Homo sapiens, UniProt P22303); test: Reactivation screening of NIMP-inhibited hrAChE; details: 15 min
[1] = target: hrAChE inhibited by NEDPA (Homo sapiens, UniProt P22303); test: Reactivation screening of NEDPA-inhibited hrAChE; details: 15 min
hrAChE inhibited by POX = hrAChE inhibited by POX (Homo sapiens, UniProt P22303); test: Reactivation screening of POX-inhibited hrAChE; details: 15 min
hrAChE inhibited by NEMP = hrAChE inhibited by NEMP (Homo sapiens, UniProt P22303); test: Reactivation screening of NEMP-inhibited hrAChE; details: 15 min
NEDPA-hrAChE = NEDPA-hrAChE (Homo sapiens, UniProt P22303); test: Reactivation kinetics of NEDPA-hrAChE
NIMP-hrAChE = NIMP-hrAChE (Homo sapiens, UniProt P22303); test: Reactivation kinetics of NIMP-hrAChE
NEMP-hrAChE = NEMP-hrAChE (Homo sapiens, UniProt P22303); test: Reactivation kinetics of NEMP-hrAChE
POX-hrAChE = POX-hrAChE (Homo sapiens, UniProt P22303); test: Reactivation kinetics of POX-hrAChE
[2] = read-out: KD (phosphylated enzyme-oxime dissociation constant)

| SMILES | hrAChE reactivation (%) NIMP ± SD (hrAChE inhibited by NIMP; oxime 10 µM) [%] | hrAChE reactivation (%) NIMP ± SD (hrAChE inhibited by NIMP; oxime 100 µM) [%] | hrAChE reactivation (%) NEDPA ± SD ([1]; oxime 10 µM) [%] | hrAChE reactivation (%) NEDPA ± SD ([1]; oxime 100 µM) [%] | hrAChE reactivation (%) POX ± SD (hrAChE inhibited by POX; oxime 10 µM) [%] | hrAChE reactivation (%) POX ± SD (hrAChE inhibited by POX; oxime 100 µM) [%] | hrAChE reactivation (%) NEMP ± SD (hrAChE inhibited by NEMP; oxime 10 µM) [%] | hrAChE reactivation (%) NEMP ± SD (hrAChE inhibited by NEMP; oxime 100 µM) [%] | kr2 (second-order reactivation rate constant, kr2=kr/KD) (NEDPA-hrAChE) [mM^–1 min^–1] | kr (first-order reactivation rate constant) (NEDPA-hrAChE) [min^–1] | kr2 (second-order reactivation rate constant, kr2=kr/KD) (NIMP-hrAChE) [mM^–1 min^–1] | kr (first-order reactivation rate constant) (NIMP-hrAChE) [min^–1] | kr2 (second-order reactivation rate constant, kr2=kr/KD) (NEMP-hrAChE) [mM^–1 min^–1] | kr (first-order reactivation rate constant) (NEMP-hrAChE) [min^–1] | kr2 (second-order reactivation rate constant, kr2=kr/KD) (POX-hrAChE) [mM^–1 min^–1] | kr (first-order reactivation rate constant) (POX-hrAChE) [min^–1] | Kd (NEDPA-hrAChE; [2]) [µM] | Kd (NIMP-hrAChE; [2]) [µM] | Kd (NEMP-hrAChE; [2]) [µM] | Kd (POX-hrAChE; [2]) [µM] |
| --- | --- | --- | --- | --- | --- | --- | --- | --- | --- | --- | --- | --- | --- | --- | --- | --- | --- | --- | --- | --- |
| NC(=O)c1ccc2ccc[n+](CCCCC[n+]3ccccc3C=NO)c2c1.[Br-].[Br-] | 1.4 ± 0.1 | 1.6 ± 0.1 | 1.5 ± 0.5 | 1.7 ± 0.4 | 2.3 ± 0.5 | 3.0 ± 1.1 | 0.7 ± 0.6 | 1.4 ± 0.1 |  |  |  |  |  |  |  |  |  |  |  |  |
| NC(=O)c1cccc2c1ccc[n+]2CCCCC[n+]1ccccc1C=NO.[Br-].[Br-] | 3.6 ± 0.3 | 4.5 ± 0.1 | 4.0 ± 0.2 | 2.4 ± 0.2 | 6.9 ± 0.9 | 5.6 ± 1.0 | 1.7 ± 0.6 | 1.7 ± 0.2 |  |  |  |  |  |  |  |  |  |  |  |  |
| NC(=O)c1ccc2c(ccc[n+]2CCCCC[n+]2ccccc2C=NO)c1.[Br-].[Br-] | 9.9 ± 1.2 | 8.0 ± 0.7 | 9.3 ± 1.1 | 4.7 ± 0.2 | 9.8 ± 1.3 | 4.7 ± 0.7 | 8.2 ± 0.8 | 5.3 ± 0.4 |  |  |  |  |  |  |  |  |  |  |  |  |
| NC(=O)c1cc2ccccc2[n+](CCCCC[n+]2ccccc2C=NO)c1.[Br-].[Br-] | 7.3 ± 0.77 | 6.1 ± 0.1 | 9.0 ± 0.7 | 5.9 ± 0.3 | 12.4 ± 1.0 | 7.3 ± 0.7 | 4.3 ± 0.2 | 5.0 ± 0.2 |  |  |  |  |  |  |  |  |  |  |  |  |
| NC(=O)c1cc[n+](CCCCC[n+]2ccccc2C=NO)c2ccccc12.[Br-].[Br-] | 14.3 ± 1.0 | 15.8 ± 0.2 | 21.4 ± 1.2 | 13.9 ± 1.0 | 23.2 ± 1.1 | 21.0 ± 2.74 | 6.2 ± 0.1 | 10.0 ± 0.6 | 14.50 | 0.486 | 24.95 | 0.216 | 29.59 | 0.313 | 72.48 | 0.567 |  |  |  |  |
| NC(=O)c1cc[n+](CCCCC[n+]2ccccc2C=NO)c2ccccc12 |  |  |  |  |  |  |  |  |  |  |  |  |  |  |  |  | 33.5 | 8.65 | 10.6 | 7.86 |
